Assay results reported in patent publication US5045530A, “Pharmaceutical preparations” (priority 1986, dated 1991).

Assay: hydrodynamic (Stokes) radius / size of micelles and vesicles, inelastic light scattering
Assay type: physicochemical

Substance: 2-carboxamid-3-dodecyl-1,4-pyridinium
- <RH> hydrodynamic radius: 750

Substance: 2-Carboxamid-3-hexadecyl-1,4-pyridinium
- <RH> hydrodynamic radius: 220
